SMILES strings stand for the structures. The list shows a part of the results, in another mix than the full data. The source made the active and inactive calls. Calls follow the shape of the dose curve; as a rule, active = well fitted inhibition curve with a large enough effect; inconclusive = small, poorly fitted or top-dose-only effect; inactive = flat fitted curve, though single readings scatter.

Protein sequences, listed by entry. Tags and fused reporters are not part of them.
UniProt P54132, whole entry: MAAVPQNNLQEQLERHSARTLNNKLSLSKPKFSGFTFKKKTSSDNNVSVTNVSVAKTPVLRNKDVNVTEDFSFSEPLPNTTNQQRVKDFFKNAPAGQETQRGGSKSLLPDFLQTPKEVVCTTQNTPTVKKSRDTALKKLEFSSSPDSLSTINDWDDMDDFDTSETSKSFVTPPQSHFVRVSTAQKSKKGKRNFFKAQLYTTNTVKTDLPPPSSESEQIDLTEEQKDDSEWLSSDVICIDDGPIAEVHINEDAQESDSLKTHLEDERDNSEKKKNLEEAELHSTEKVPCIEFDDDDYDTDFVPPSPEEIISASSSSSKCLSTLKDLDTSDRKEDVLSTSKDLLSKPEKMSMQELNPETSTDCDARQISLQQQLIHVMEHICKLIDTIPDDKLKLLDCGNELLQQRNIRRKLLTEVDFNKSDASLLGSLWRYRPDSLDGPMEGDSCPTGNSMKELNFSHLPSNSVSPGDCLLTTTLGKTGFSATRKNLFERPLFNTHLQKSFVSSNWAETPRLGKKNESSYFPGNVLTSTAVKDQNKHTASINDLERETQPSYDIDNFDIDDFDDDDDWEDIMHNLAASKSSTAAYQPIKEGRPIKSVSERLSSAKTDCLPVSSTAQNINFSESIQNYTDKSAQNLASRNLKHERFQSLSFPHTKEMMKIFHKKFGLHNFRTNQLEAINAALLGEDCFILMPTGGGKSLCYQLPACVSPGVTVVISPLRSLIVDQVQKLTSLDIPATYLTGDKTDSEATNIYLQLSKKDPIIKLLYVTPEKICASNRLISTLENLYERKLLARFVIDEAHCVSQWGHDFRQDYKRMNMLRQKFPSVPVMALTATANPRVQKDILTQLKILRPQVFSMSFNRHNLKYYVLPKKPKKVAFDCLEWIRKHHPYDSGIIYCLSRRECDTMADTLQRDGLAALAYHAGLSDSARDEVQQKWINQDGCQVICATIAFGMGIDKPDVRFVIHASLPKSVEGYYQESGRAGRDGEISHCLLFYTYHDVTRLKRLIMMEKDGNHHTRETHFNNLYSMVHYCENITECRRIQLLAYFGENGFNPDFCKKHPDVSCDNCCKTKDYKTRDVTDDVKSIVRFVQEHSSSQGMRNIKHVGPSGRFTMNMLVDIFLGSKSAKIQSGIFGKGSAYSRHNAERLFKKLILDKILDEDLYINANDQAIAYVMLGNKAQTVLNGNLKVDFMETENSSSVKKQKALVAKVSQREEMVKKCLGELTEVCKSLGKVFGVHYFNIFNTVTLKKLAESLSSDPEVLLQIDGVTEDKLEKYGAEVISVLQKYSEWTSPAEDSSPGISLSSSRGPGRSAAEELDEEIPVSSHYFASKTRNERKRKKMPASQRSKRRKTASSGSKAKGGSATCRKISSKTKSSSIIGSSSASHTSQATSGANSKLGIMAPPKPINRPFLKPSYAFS

Experimental findings from PubChem BioAssay AID2528 (National Center for Advancing Translational Sciences (NCATS), 2010) are described below.

This assay concerns the target RecQ-like DNA helicase BLM (Homo sapiens) (UniProt P54132). Put plainly: qHTS Assay for Inhibitors of Bloom's syndrome helicase (BLM).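 Also: plate controls were vehicle for no effect and no enzyme for full effect; nearly all actives have a fitted effect of over 35% in size.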 The conditions noted are these: recombinant BLM DNA unwinding, fluorescence dequenching; at 56.1 µM (top of the series). A general note: qHTS replaces the single test concentration by a dilution series.
Take `COc1ccc(C(=O)NCC2(N3CCCCC3)CCCCC2)cc1`: the activity change, negative = inhibition is inactive: 4.83%.
Turning to `CSc1ccccc1C(=O)NCC1(N2CCCCC2)CCCCC1`, the activity change, negative = inhibition is inactive: 4.47%.
The figure for `O=C(NCC1(N2CCOCC2)CCCCC1)c1cc2ccccc2o1` is inactive: -4.18%.
In the case of `Cc1cc(C)cc(N(C(=O)c2ccccc2)C2CCN(C(=O)OC(C)(C)C)CC2)c1`, the activity change, negative = inhibition is inactive: -9.42%.
As for `CCOC(=O)N1CCC(Nc2ccc(OC)cc2)CC1`, the activity change, negative = inhibition is inactive: -1.63%.
The result for `O=C(OC1CN2CCC1CC2)C1c2ccccc2Oc2ccccc21` (stereo not drawn) reads inactive: 3.09%.
Take `N#CC1(Nc2ccccc2)CCN(Cc2ccccc2)CC1`: the activity change, negative = inhibition is inactive: -0.419%.
The result for `CCOc1ccc(C)cc1CN(CCCl)CCCl` reads inactive: 3.9%.
The result for `O=C(NCC1(N2CCOCC2)CCCCC1)c1ccc(Cl)cc1` reads inactive: -3.47%; that for `CCOC(=O)N1CCC(Nc2ccc(F)cc2)CC1`, inactive: -0.833%.
The figure for `COc1ccc(NC2CCN(CCc3ccccc3)CC2)c(OC)c1` is inactive: -2.13%.
`O=C(NCC1(N2CCCCC2)CCCCC1)c1ccc(F)cc1`: the activity change, negative = inhibition is inactive: 1.98%.
The result for `COc1ccccc1C(=O)NCC1(N2CCOCC2)CCCCC1` reads inactive: 0.739%; that for `Cc1ccc(OCC(C)C)c(CN(CCCl)CCCl)c1`, inactive: 1.03%; that for `COc1cc(C(=O)NCC2(N(C)C)CCCCC2)ccc1OC(F)F`, inactive: -3.69%.
The result for `CCOC(=O)N1CCC(Nc2cccc(C)c2)CC1` reads inactive: -4.63%; that for `COc1cc(OC)cc(C(=O)NCC2(N3CCCCC3)CCCCC2)c1`, inactive: 3.19%; that for `CN(C)C1(CNC(=O)c2ccc(C(C)(C)C)cc2)CCCCC1`, inactive: 1.58%.
For the compound `Fc1ccccc1NC1CCN(Cc2ccccc2)CC1`, the activity change, negative = inhibition is inactive: -5.95%.
Take `CCN1CCC(Nc2cccc(F)c2)CC1`: the activity change, negative = inhibition is inactive: 4.53%.
For the compound `CN(C)c1ccc(C(=O)NCC2(N3CCCCC3)CCCCC2)cc1`, the activity change, negative = inhibition is inactive: 1.22%.
For the compound `CC(C)(C)c1ccc(C(=O)NCC2(N3CCOCC3)CCCCC2)cc1`, the activity change, negative = inhibition was inactive: -6.19%.
The result for `Cc1ccccc1C(=O)NCC1(N(C)C)CCCCC1` reads inactive: 1.8%.
The result for `CN1CCC(Nc2ccc(F)c(Cl)c2)CC1` reads inactive: -1.58%.
Regarding `CCOc1ncccc1C(=O)NCC1(N2CCOCC2)CCCCC1`, the activity change, negative = inhibition is inactive: -1.68%.
With `CCCOc1ccc(C(=O)NCC2(N(C)C)CCCCC2)cc1`, the activity change, negative = inhibition is inactive: 3.07%.
With `O=C(O)C1(Nc2ccccc2)CCN(Cc2ccccc2)CC1`, the activity change, negative = inhibition was inactive: 0.637%.
On to `CC(C)(C)OC(=O)N1CCC(Nc2ccccc2)CC1`, for which the activity change, negative = inhibition was inactive: -4.45%.
The figure for `CCC(CO)(C(=O)OC1CN2CCC1CC2)c1ccccc1` (stereo not drawn) is inactive: 1.08%; for `COc1cccc(C(=O)N(c2cc(C)cc(C)c2)C2CCN(C(=O)OC(C)(C)C)CC2)c1` it is inactive: -14%; for `COc1cc(OC)cc(C(=O)NCC2(N3CCOCC3)CCCCC2)c1` it is inactive: 0.569%.
The result for `COc1cc(C(=O)NCC2(N3CCOCC3)CCCCC2)cc(OC)c1OC` reads inactive: -2.73%.
Take `CCCOc1ccc(C)cc1CN(CCCl)CCCl`: the activity change, negative = inhibition is inactive: 3.34%.
The result for `CN1CCC(Nc2ccc(Cl)cc2)CC1` reads inactive: 2.21%; that for `COc1ccc(C(=O)NCC2(N3CCOCC3)CCCCC2)cc1OC`, inactive: -0.632%; that for `N/C(=N\O)c1c(N)no[n+]1[O-]`, inactive: -3.32%.
The result for `CCOC(=O)N1CCC(Nc2ccc(C)cc2)CC1` reads inactive: -0.311%; that for `O=C(O)c1cccc(Nc2c([N+](=O)[O-])cc([N+](=O)[O-])cc2[N+](=O)[O-])c1`, inactive: -7.3%; that for `O=C(OC1CN2CCC1CC2)C1c2ccccc2C=Cc2ccccc21` (stereo not drawn), inactive: 5.36%.
On to `O=C(NCC1(N2CCOCC2)CCCCC1)c1ccc([N+](=O)[O-])cc1`, for which the activity change, negative = inhibition was inactive: -1.22%.
The result for `CC(C)(C)OC(=O)N1CCC(N(C(=O)c2ccccc2)c2ccc(Cl)cc2)CC1` reads inactive: -8.21%.
The figure for `O=C(NCC1(N2CCOCC2)CCCCC1)c1ccccc1[N+](=O)[O-]` is inactive: -1.42%.
The result for `N#Cc1ccc(C(=O)NCC2(N3CCCCC3)CCCCC2)cc1` reads inactive: 3.46%.
With `CCOC(=O)C(CC)C1=NC(C)(C)Cc2ccccc21.O=[N+]([O-])c1cc([N+](=O)[O-])c(O)c([N+](=O)[O-])c1` (stereo not drawn), the activity change, negative = inhibition is inactive: -4.5%.
As to `O=C(NCC1(N2CCOCC2)CCCCC1)c1ccccc1`, the activity change, negative = inhibition was inactive: -1.7%.
The result for `CCCN1CCC(Nc2cc(OC)cc(OC)c2)CC1` reads inactive: 2.38%; that for `c1ccc(CN2CCC(Nc3ccccc3)CC2)cc1`, inactive: -0.522%; that for `CN(C)C1(CNC(=O)c2cccc(C#N)c2)CCCCC1`, inactive: -4.23%.
